This experiment deals with T1, Aβ1-42 (Homo sapiens, UniProt P05067).
T1 construct: Aβ1-42 lyophilized powder (Bachem) was reconstituted in hexafluoroisopropanol (HFIP) to 1 mM; purchased Bachem
Briefly: Thioflavin T spectrofluorescence assay: inhibition of Aβ1-42 aggregation. In kind it is biochemical. As to the method:
The objective of this example was to evaluate the capacity of the compounds of the invention to inhibit the aggregation of (Aβ)1-42 peptide and to disaggregate pre-aggregated Aβ1-42 using a thioflavin T spectrofluorescence assay.
Aβ1-42 lyophilized powder (Bachem) was reconstituted in hexafluoroisopropanol (HFIP) to 1 mM. The peptide solution was sonicated for 15 min at room temperature, agitated overnight, and aliquots were placed into non-siliconized microcentrifuge tubes. The HFIP was then evaporated under a stream of argon. The resulting peptide film was dried under vacuum for 10 min, tightly sealed and stored at −80° C. until used.
Aβ1-42 peptide film was dissolved in DMSO to reach 400 μM. Assay solution in PBS was prepared in non-siliconized incubation tubes to reach the following concentrations: 330 μM small molecule, 33 μM Aβ1-42, 10 μM thioflavin T (ThT), and 12.8% DMSO. Therefore, the final molar ratio of small molecule to Aβ1-42 was 10:1. A positive control without a small molecule was prepared to measure maximum RFU. […] The solutions were then incubated for 24 h at 37° C., and the spectrofluorescence (relative fluorescence units; RFU) read in six replicates in black 384-well assay plates (Perkin-Elmer) on a Perkin-Elmer FluoroCount spectrofluorometer. Inhibition of aggregation is expressed as mean % inhibition±1 standard deviation (SD) according to the following equation: […]

Sequences of proteins named here, by UniProt entry; tags and fusion partners are left off. Residues count along the entry.
UniProt P05067, 672-713 limits assumed: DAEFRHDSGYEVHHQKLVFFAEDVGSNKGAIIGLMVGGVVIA

The structures appear in SMILES notation. Counter-ions that a name gives are not always drawn.

Usually inhibition stands for the change of the read-out against control, counted positive when it falls. A higher inhibition goes with strong suppression.

For the compound `c1ccc(-c2ccc(-c3cc(NCCNc4cc(-c5ccc(-c6ccccc6)cc5)[nH]n4)n[nH]3)cc2)cc1` [Compound 1am, N^1-(5-(Biphenyl-4-yl)-1H-pyrazol-3-yl)-N^2-(3-(biphenyl-4-yl)-1H-pyrazol-5-yl)ethane-1,2-diamine bishydrochloride], the “inhibition of Aβ1-42 aggregation, in words” value (10:1 small molecule to Aβ1-42 molar ratio) is given as “strong inhibition of aggregation”. This compound displayed an inhibition at 330 µM (24 h) of 73.9 ± 4%.
